Test results reported in US20250084169A1 (published 2025).
Substitutions are numbered along the chain they refer to. Names and notes keep the numbering of the source.

Columns and labels:
[1] = target: T1, cynomolgus monkey Fc gamma receptor CD16 (cynomolgus monkey, UniProt Q8SPW2 17-208); test: SPR (Carterra), monovalent format
T1 construct: also called CD16 (cynomolgus)

[2] = target: T2, cynomolgus monkey Fc gamma receptor CD32a (cynomolgus monkey); test: SPR (Carterra), monovalent format
T2 construct: also called CD32a (cynomolgus)

[3] = target: T3, cynomolgus monkey Fc gamma receptor CD32b (cynomolgus monkey); test: SPR (Carterra), monovalent format
T3 construct: also called CD32b (cynomolgus)

[4] = target: T1, cynomolgus monkey Fc gamma receptor CD16; test: BLI (Octet), cynomolgus FcγR on sensor
[5] = target: T2, cynomolgus monkey Fc gamma receptor …; test: BLI (Octet), cynomolgus FcγR on sensor
[6] = target: T3, cynomolgus monkey Fc gamma receptor …; test: BLI (Octet), cynomolgus FcγR on sensor
[7] = target: T4, recombinant human Fc gamma RIIIa (CD16a) 158F (human, UniProt P08637 17-208); test: BLI (Octet), FcγR on sensor, bivalent format
T4 construct: also called FcRγIIIa

[8] = target: T5, recombinant human Fc gamma RIIIa (CD16a) 158V (human, UniProt P08637 17-208); test: BLI (Octet), FcγR on sensor, bivalent format
T5 construct: also called FcRγIIIa; FcgRIIIa 158 V

[9] = target: T6, recombinant human Fc gamma RIIIb (CD16b) (human, UniProt O75015 17-200); test: BLI (Octet), FcγR on sensor, bivalent format
T6 construct: also called FcRγIIIb

[10] = target: T7, recombinant human Fc gamma RIIa (CD32a) 131H (human, UniProt P12318 36-218); test: BLI (Octet), FcγR on sensor, bivalent format
T7 construct: also called FcRγIIa
T7 sequence (looked up): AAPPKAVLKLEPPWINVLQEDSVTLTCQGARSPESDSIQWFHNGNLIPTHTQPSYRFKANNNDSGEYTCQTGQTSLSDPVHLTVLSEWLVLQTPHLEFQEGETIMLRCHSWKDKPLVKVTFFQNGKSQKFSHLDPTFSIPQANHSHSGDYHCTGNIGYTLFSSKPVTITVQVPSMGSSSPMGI

[11] = target: T8, recombinant human Fc gamma RIIa (CD32a) 131R (human, UniProt P12318 36-218); test: BLI (Octet), FcγR on sensor, bivalent format
T8 construct: also called Fc gamma RIIa (CD32) (Arg167)
T8 sequence (looked up): T7 sequence (looked up) with H132R

[12] = target: T9, recombinant human Fc gamma RIIb/c (CD32b/c) (human, UniProt P31994 46-217); test: BLI (Octet), FcγR on sensor, bivalent format
T9 construct: also called FcRγIIb; FcgRIIb/c
T9 sequence (looked up): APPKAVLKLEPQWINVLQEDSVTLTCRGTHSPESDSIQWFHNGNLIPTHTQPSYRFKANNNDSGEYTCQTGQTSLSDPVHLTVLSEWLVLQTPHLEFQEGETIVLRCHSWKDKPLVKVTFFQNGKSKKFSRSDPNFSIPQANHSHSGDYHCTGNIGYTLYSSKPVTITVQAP

[13] = target: T10, recombinant human Fc gamma RI (CD64) (human, UniProt P12314 16-288); test: BLI (Octet), FcγR on sensor, bivalent format
T10 construct: also called FcRγI; FcgRI

[14] = target: T4, recombinant human Fc gamma RIIIa …; test: BLI (Octet), FcγR on sensor, bivalent format; remark: listed apart in the source
[15] = target: T5, recombinant human Fc gamma RIIIa …; test: BLI (Octet), FcγR on sensor, bivalent format; remark: listed apart in the source
[16] = target: T6, recombinant human Fc gamma RIIIb (CD16b); test: BLI (Octet), FcγR on sensor, bivalent format; remark: listed apart in the source
[17] = target: T7, recombinant human Fc gamma RIIa (CD32a) …; test: BLI (Octet), FcγR on sensor, bivalent format; remark: listed apart in the source
[18] = target: T8, recombinant human Fc gamma RIIa (CD32a) …; test: BLI (Octet), FcγR on sensor, bivalent format; remark: listed apart in the source
[19] = target: T9, recombinant human Fc gamma RIIb/c …; test: BLI (Octet), FcγR on sensor, bivalent format; remark: listed apart in the source
[20] = target: T10, recombinant human Fc gamma RI (CD64); test: BLI (Octet), FcγR on sensor, bivalent format; remark: listed apart in the source
[21] = target: T4, recombinant human Fc gamma RIIIa …; test: SPR (Carterra LSA), antibody captured via anti-CH1, monovalent
[22] = target: T5, recombinant human Fc gamma RIIIa …; test: as above
[23] = target: T6, recombinant human Fc gamma RIIIb (CD16b); test: as above
[24] = target: T8, recombinant human Fc gamma RIIa (CD32a) …; test: as above
[25] = target: T9, recombinant human Fc gamma RIIb/c …; test: as above
[26] = target: T10, recombinant human Fc gamma RI (CD64); test: as above

B1: HB2198 (bispecific antibody, human IgG1, kappa)
heavy 1: QVQLVQSGGGVVQPGRSLRLSCAASGVSLPDYGVSWVRKAPGKGLEWVAVIWGSETTYYNSALKSRFTISRDNSKNTLYLQMSSLRAEDTAVYYCAKHYYYGGSFAMDYWGQGTLVTVSSASTKGPSVFPLAPSSKSTSGGTAALGCLVKDYFPEPVTVSWNSGALTSGVHTFPAVLQSSGLYSLESVVTVPSSSLGTQTYICNVNHKPSNTKVDKKVEPKSCTDWSPYADQSIKVRISLKSALGDKAYEWNDNEMYLFRSSVAYAMRQYFLKVKNQMILFGEEDVRVANLKPRISFNFFVTAPKNVSDIIPRTEVEKAIRMSRSRINDAFRLNDNSLEFLGIQPTLGPPNQPPVSTSTSPTRSMAPGAVHLPQPVSTRDKTHTCPPCPAPELLGGPDVFLFPPKPKDTLMISRTPEVTCVVVDVSHEDPEVKFNWYVDGVEVHNAKTKPREEQYNSTYRVVSVLTVLHQDWLNGKEYKCKVSNKALPAPEEKTISKAKGQPREPQVCTLPPSRDELTKNQVSLSCAVKGFYPSDIAVEWESNGQPENNYKTTPPVLDSDGSFFLVSKLTVDKSRWQQGNVFSCSVMHEALHNRFTQKSLSLSPG
heavy 2: QIVLSQSPAILSASPGEKVTMTCRASSSVSYIHWFQKKPGSSPKPWIYATSNLASGVPVRFSGSGSGTSYSLTISRVEAEDAATYYCQQWTSNPPTFGGGTKVEIKSSASTKGPSVFPLAPSSKSTSGGTAALGCLVKDYFPEPVTVSWNSGALTSGVHTFPAVLQSSGLYSLKSVVTVPSSSLGTQTYICNVNHKPSNTKVDKKVEPKSCDKTHTCPPCPAPELLGGPDVFLFPPKPKDTLMISRTPEVTCVVVDVSHEDPEVKFNWYVDGVEVHNAKTKPREEQYNSTYRVVSVLTVLHQDWLNGKEYKCKVSNKALPAPEEKTISKAKGQPREPQVYTLPPCRDELTKNQVSLWCLVKGFYPSDIAVEWESNGQPENNYKTTPPVLDSDGSFFLYSKLTVDKSRWQQGNVFSCSVMHEALHNHYTQKSLSLSPG
light 1: DIQMTQSPSSLSASVGDRVTITCRASQDISKYLNWYQEKPGKAIKLLIYHTSRLHSGVPSRFSGSGSGTDFTLTISSLQPEDFATYYCQQGATLPYTFGPGTKLEIKRTVAAPSVFIFPPSDEQLKSGTASVKCLLNNFYPREAKVQWKVDNALQSGNSQESVTEQDSKDSTYSLSSTLTLSKADYEKHKVYACEVTHQGLSSPVTKSFNRGEC
light 2: QVQLQQPGAELVKPGASVKMSCKASGYTFTSYNMHWVKETPGRGLEWIGAIYPGNGDTSYNQKFKGKATLTADKSSSTAYMQLSSLTSEDSAVYYCARSTYYGGDWYFNVWGAGTLVTVSSASVAAPSVFIFPPSDEQLKSGTASVECLLNNFYPREAKVQWKVDNALQSGNSQESVTEQDSKDSTYSLSSTLTLSKADYEKHKVYACEVTHQGLSSPVTKSFNRGEC
notes: also called Protein ID 21-98; HB2198 (S239D/1332E)
With B1 the “Fold (KD of MabThera / KD)” value [1] was 73.8 fold, the “Fold (KD of MabThera / KD)” value [2] was 10.3 fold and the “Fold (KD of MabThera / KD)” value [3] was 6.7 fold. The “Fold (KD of rituximab / KD)” value [4] was 214 fold, the “Fold (KD of rituximab / KD)” value [5] was 1500 fold and the “Fold (KD of rituximab / KD)” value [6] was 1060 fold. The “fold increase of binding affinity compared to tafasitamab” value (shortened to “fold increase of binding affinity”) [7] was over 60 fold, the “fold increase of binding affinity” value [8] was over 44 fold and the “fold increase of binding affinity” value [9] was over 88 fold. For the same binder, the “fold increase of binding affinity” value [10] was over 115 fold, the “fold increase of binding affinity” value [11] was over 100 fold and the “fold increase of binding affinity” value [12] was 106 fold. For the same binder, the “fold increase of binding affinity” value [13] was over 278 fold, the “Fold (KD of rituximab / KD)” value [14] was over 765 fold and the “Fold (KD of rituximab / KD)” value [15] was over 298 fold. The “Fold (KD of rituximab / KD)” value [16] was over 2040 fold, the “Fold (KD of rituximab / KD)” value [17] was over 870 fold and the “Fold (KD of rituximab / KD)” value [18] was over 1160 fold. For the same binder, the “Fold (KD of rituximab / KD)” value [19] was 3050 fold, the “Fold (KD of rituximab / KD)” value [20] was over 565 fold and the Fold [21] was 96.9 fold. The Fold [22] was 73.7 fold, the Fold [23] was 45.5 fold and the Fold [24] was 5 fold. The Fold [25] was 31.4 fold and the Fold [26] was over 2.7 fold.
